Source: patent US4950658A, “Method of medical treatment of Alzheimer's disease” (priority 1988, dated 1990)

Key:
acetylcholine = experiment: Acetylcholine levels in rat brain after one or two consecutive administrations; assay type: in vivo
Text: The second administration of the drugs was timed so as to allow acetylcholine levels to return to approximately (+12%) control levels and the concentration of the drug was the highest that would allow 100% survival.

brain cholinesterase = experiment: Cholinesterase activity in rat after intramuscular inhibitor; assay type: in vivo; settings: at the doses used

For CNC(=O)Oc1ccc2c(c1)[C@]1(C)CCN(C)[C@@H]1N2C [physostigmine], the “time at which acetylcholine returned practically to control levels” value (acetylcholine; first administration) was 60 min, the “time at which the peak value of acetylcholine was reached” value (acetylcholine; first administration) was 15 min and the “increase in acetylcholine levels after the first administration” value (acetylcholine; rat brain, first of two consecutive administrations) was 70%. For the same molecule, the “duration of the acetylcholine increase after the second administration” value (acetylcholine; second consecutive administration) was 60 min, the “increase in acetylcholine after the second administration” value (acetylcholine; second consecutive administration, highest dose allowing 100% survival) was 75% and the peak cholinesterase inhibition (brain cholinesterase) was 65%. For the same molecule, the “time of peak cholinesterase inhibition” value (brain cholinesterase) was 15 min.
